# Measured values: PubChem BioAssay AID624202 (National Center for Advancing Translational Sciences (NCATS), 2012)
# Only a part is listed here, and it is no random draw. Activity calls are given as the source filed them. Calls follow the shape of the dose curve; as a rule, active = well fitted activation curve with a large enough effect; inconclusive = small, poorly fitted or top-dose-only effect; inactive = no such curve, though single readings can be large or run the other way.
# Assay: qHTS Assay to Identify Small Molecule Activators of BRCA1 Expression; also: nearly all actives have a fitted effect of over 80% in size
# Conditions: MCF7-BRCA1-FFLuc reporter, luminescence, 48 h, scaled: vehicle 0%, 10 µM genistein 100%; at 46.1 µM (top of the series) unless noted
row,Structure (SMILES),activation
1,O=P1(N(CCCl)CCCl)OCCC2CCCCN21 (configuration not stated),inactive: -10.1%
2,O=C(NC1CCS(=O)(=O)C1)NP(=S)(Oc1ccccc1)Oc1ccccc1 (configuration not stated),inactive: 9.6%
3,CCNC(=S)/N=C(\N)N[N+](=O)[O-],inactive: 0%
4,Cc1ccc(NP(=O)(Oc2cccc(C)c2)Oc2cccc(C)c2)nc1,inactive: 7.38%
5,c1ccc(-c2nn[nH]n2)c(-c2nn[nH]n2)c1,inactive: -3.94%
6,O=c1c2cc([N+](=O)[O-])ccc2[nH]c2c([N+](=O)[O-])cc([N+](=O)[O-])cc12,inactive: -67.6%
7,CN(C)C(=O)Oc1noc2ccccc12,inactive: 0%
8,CC(NC(=O)COC(=O)C(O)(c1ccccc1)c1ccccc1)c1ccccc1 (configuration not stated),inactive: -3.42%
9,Cc1ccccc1OP(=O)(Nc1ccccn1)Oc1ccccc1C,inactive: -17.3%
10,CC(=O)NC(SC(=S)N(CC(C)C)CC(C)C)C(Cl)(Cl)Cl (configuration not stated),inactive: 0.974%
11,Cc1ccc(OP(=O)(Nc2ccccn2)Oc2ccc(C)cc2)cc1,inactive: -28.3%
12,COC(=O)c1cc2c(s1)N=C(c1ccccc1)N(C)P2(=O)N1CCOCC1 (configuration not stated),inactive: -1.38%
13,CCC(=O)N1C2C3N(C(=O)CC)C1C1N(C(=O)CC)C(C(N1C(=O)CC)N3C(=O)CC)N2C(=O)CC,inactive: -23.8%
14,O=C(OC1CN2CCC1CC2)c1ccccc1 (configuration not stated),inactive: 10.3%
15,CCc1cc(O)c([N+](=O)[O-])c(C)c1[N+](=O)[O-],inactive: -5.37%
16,CC(C)(C)C(=O)NC(Sc1ccccc1)C(Cl)(Cl)Cl (configuration not stated),inactive: -0.958%
17,CCOc1ccc(C2=NCC(CBr)S2)cc1 (configuration not stated),inactive: -5.09%
18,O=P1(Nc2nc3ccc(Cl)cc3s2)COc2ccccc2O1 (configuration not stated),inactive: 61.8%
19,CC(=O)Nc1ccc(Oc2c([N+](=O)[O-])cc([N+](=O)[O-])cc2[N+](=O)[O-])cc1,inactive: -33.7%
20,CC(=O)Nc1ccc([As](=O)(O)O)c(O)c1,inactive: -12.5%
21,COC(=O)C1(C)COP(=O)(NCc2ccccc2)OC1 (configuration not stated),inactive: -9.47%
22,CC(=O)c1ccc(N2CC2c2ccncc2)cc1 (configuration not stated),inactive: -9.55%
23,N#C/C(=C\c1ccc(N(CCBr)CCBr)cc1)C(N)=O,inactive: -88.1%
24,C[C@H]1OP(=O)(Oc2ccccc2)C[C@@H]2O[C@@H]21 (some centres not stated),inactive: 16.4%
25,C[C@@H]1C=CCP(=O)(Oc2ccccc2)O1 (some centres not stated),inactive: 0%
26,Cc1ccccc1CN(C)C(=O)COC(=O)C(O)(c1ccccc1)c1ccccc1,inactive: -11.5%
27,O=P(Nc1nccs1)(c1ccccc1)c1ccccc1,inactive: -10.1%
